The values below come from US20060251705A1, “Delivery of tigecycline in the presence of heparin” (Wyeth, priority 2005, published 2006).

Molecules are shown by their SMILES.

The series can be described thus: Simulated Y-site compatibility: pH by potentiometric meter. The class given is physicochemical. The method, then: To “simulate” the Y-site, solutions of both tigecycline and heparin are mixed in a 1:1 ratio, and the compatibility of the common solution is evaluated for Appearance and Description (i.e. color, visible particulates or turbidity), subvisible particulates by light obscuration (i.e. HIAC), and pH over a four hour, room temperature period. This time period has become standard when performing these “simulated Y-site” studies, although the actual residence time for the two solutions in the administration set may not exceed eight minutes prior to entering the venous system. […]
The acceptance criteria of “no incompatibility indicating change” over the four hour evaluation period is being applied to the Appearance and Description assay as well as the HIAC subvisible particulate assay. […] In addition to the Appearance and Description and HIAC testing, the pH of the solutions are monitored “for information only.” Before mixing of the two test solutions together; Appearance and Description, HIAC subvisible particulate testing, and pH are determined on each as controls.
Testing of Controls • 1. Approximately 30 ml of the tigecycline and of the heparin solution are transferred to separate beakers and evaluated for Appearance and Description, subvisible particulates by HIAC and pH testing before the two test articles are mixed together. • 2. […]

In turn, `CN(C)c1cc(NC(=O)CNC(C)(C)C)c(O)c2c1C[C@H]1C[C@H]3[C@H](N(C)C)C(O)=C(C(N)=O)C(=O)[C@@]3(O)C(O)=C1C2=O` [Tigecycline, (4S,4aS,5aR,12aS)-9-[2-(tert-butylamino)acetamido]-4,7-bis(dimethylamino)-1,4,4a,5,5a,6,11,12a-octahydro-3,10,12,12a-tetrahydroxy-1,11-dioxo-2-naphthacenecarboxamide] showed a pH (Table 1: Tigecycline 1 mg/mL in NS, Heparin 10 Units/ml in NS, each solution before mixing, 0 Hours) of 7.78; a pH (Table 6: Tigecycline and Chlorpromazine solutions, each before mixing, 0 hours) of 7.74.
